From PubChem BioAssay AID2825 (Sanford-Burnham Center for Chemical Genomics, 2010) come the findings set out here.

Each structure is given as a SMILES string. This is a selection; strong and weak results do not stand in their true shares. The source made the active and inactive calls.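 Rule for the calls: active = inhibition of 50% or more; inactive = inhibition below 50%.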

This assay in a line: blockers of yeast NLRP3/ASC/caspase-1 reporter – luminescence, uHTS, primary screen (AID 2825).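 Note: plate controls were induced DMSO wells for no effect and uninduced yeast grown without galactose for full effect.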 To be noted: Yeast reconstituted NLRP3/ASC/caspase-1, beta-gal luminescence, 24 h; at 10 µM; stronger effect = higher value.
With `CN(C)C(=O)c1cc([N+](=O)[O-])cc2c1-c1c(cc([N+](=O)[O-])cc1[N+](=O)[O-])C2=O`, the inhibition (usually the relative decrease from the control value, in per cent) was inactive: 19.4%.

Consider `CCOP1(=S)c2c(C)nn(CCC#N)c2N=C(c2ccc(F)cc2)N1C` (centres undefined), for which the inhibition was inactive: 4.25%.

Turning to `CN(C(=O)Cc1ccccc1)[C@@H]1CC[C@]2(CCCO2)C[C@H]1N1CCCC1`, the inhibition was inactive: 23.2%.

Consider `N#CCCN(C(=O)COC(=O)C(O)(c1ccccc1)c1ccccc1)c1ccc(F)cc1`, for which the inhibition was inactive: 27%.

In the case of `NC(=O)Nc1ccc([As](=O)(O)O)cc1`, the inhibition was inactive: 17.4%.

`Cc1cccc(OCC(=O)OC2CN3CCC2CC3)c1` (centres undefined): the inhibition is inactive: 10.7%.

Take `O=[As](O)(c1cccc(O)c1)c1cccc(O)c1`: the inhibition was inactive: 5.15%.

Take `CS(=O)(=O)c1ccc(Cl)c(NC(=O)COC(=O)C(O)(c2ccccc2)c2ccccc2)c1`: the inhibition was inactive: 22.6%.

Take `O=[As](O)(O)c1cccnc1`: the inhibition is inactive: -5.6%.

With `COc1cc(C(=O)NCC2(N3CCOCC3)CCCCC2)cc(Cl)c1OC(C)C`, the inhibition was inactive: -2.04%.

As to `O=C(OC1CN2CCC1CC2)c1ccc(Cl)cc1` (centres undefined), the inhibition is inactive: 10.1%.

As to `CCOP(=O)(Nc1cccc2ccccc12)OCC`, the inhibition is inactive: 6.74%.

On to `COc1cc(C2NCCC3(OCCO3)C2(C)C)cc(OC)c1OC` (centres undefined), for which the inhibition was inactive: 11.7%.

On to `CCCOP(=S)(Nc1nc(N)cc(=O)[nH]1)OCCC`, for which the inhibition is inactive: -10.8%.

As for `Cc1ccc(NCCc2c([N+](=O)[O-])cc([N+](=O)[O-])cc2[N+](=O)[O-])cc1`, the inhibition is inactive: 33.7%.

As for `COc1cc(I)ccc1[As](=O)(O)O`, the inhibition was inactive: -0.566%.

For the molecule `COc1ccc2nc(NP(=O)(c3ccccc3)c3ccccc3)sc2c1`, the inhibition was inactive: 12.1%.

Regarding `Cc1cc(=O)[nH]c(N[N+](=O)[O-])n1`, the inhibition is inactive: 1.5%.

`O=C(OC1CN2CCC1CC2)C12CC3CC(CC(C3)C1)C2` (centres undefined): the inhibition was inactive: 8.17%.

On to `Cc1c2c(nc3ccccc13)SC(C(Cl)Cl)C2` (centres undefined), for which the inhibition is inactive: 22%.

Consider `COc1ccc(N/C(=N/P(=O)(N2CCOCC2)N2CCOCC2)N2CCOCC2)cc1`, for which the inhibition was inactive: 2.64%.

Regarding `Cc1ccc2nc3c(c(C)c2c1)CC(C(Cl)Cl)S3` (centres undefined), the inhibition is inactive: 27.3%.

In the case of `Cc1ccc(OP(=O)(Nc2ccc([N+](=O)[O-])cn2)Oc2ccc(C)cc2)cc1`, the inhibition was inactive: 16.9%.

On to `COc1cc(C(=O)NCC2(N3CCOCC3)CCCCC2)ccc1OCC(C)C`, for which the inhibition is inactive: 4.22%.

With `C[As](=O)(O)c1cccc(C(=O)O)c1`, the inhibition is inactive: -0.47%.

Take `O=[As](O)(c1ccc(O)cc1)c1ccccc1O`: the inhibition was inactive: -0.978%.

With `O=[N+]([O-])c1cc([N+](=O)[O-])c(-c2ccn[nH]2)s1`, the inhibition is inactive: 27.8%.

For `CC(C)NC(=O)NP(=O)(Oc1ccccc1)Oc1ccccc1`, the inhibition was inactive: 27.4%.

As to `O=C(OC1CN2CCC1CC2)c1cccc2[nH]cnc12` (centres undefined), the inhibition was inactive: 11.3%.

Regarding `CCN(CC)C(=S)SC(NC=O)C(Cl)(Cl)Cl` (centres undefined), the inhibition was inactive: -5.04%.

Regarding `CC(C)c1ccc(OP(=O)(Nc2ccccn2)Oc2ccccc2F)cc1` (centres undefined), the inhibition was inactive: 25.3%.

Take `ClCCSc1nnc(-c2cccnc2)o1`: the inhibition was inactive: -2.57%.

Turning to `Cc1cc(SC(NC(=O)c2ccccc2)C(Cl)(Cl)Cl)nc(C(C)C)n1` (centres undefined), the inhibition was inactive: -3.49%.

Consider `CCCCOc1ccc(C(=O)NCC2(N3CCCCC3)CCCCC2)cc1OC`, for which the inhibition is inactive: 13.8%.

Regarding `CCOC(=O)Nc1ccc([As](=O)(O)O)c(O)c1`, the inhibition was inactive: 9.41%.

On to `O=P(Nc1ccccn1)(c1cccc2ccccc12)c1cccc2ccccc12`, for which the inhibition was inactive: -1.16%.

Consider `Cc1cc(SC(NC=O)C(Cl)(Cl)Cl)ncn1` (centres undefined), for which the inhibition was inactive: 10.8%.

Take `CCOC(=O)Nc1cccc([As](=O)(O)O)c1`: the inhibition was inactive: 7.05%.

For the molecule `O=C(Nc1ccncc1[N+](=O)[O-])c1ccc([N+](=O)[O-])cc1[N+](=O)[O-]`, the inhibition is inactive: 16.5%.

For the molecule `O=C(COc1ccccc1)OC1CN2CCC1CC2` (centres undefined), the inhibition is inactive: 3.43%.

Turning to `COP1(=S)c2c(C)nn(CCC#N)c2N=C(c2ccc(F)cc2)N1C` (centres undefined), the inhibition was inactive: 8.77%.

On to `CCC(C)N(CC(C)C)C(=S)SC(NC(C)=O)C(Cl)(Cl)Cl` (centres undefined), for which the inhibition is inactive: 19.8%.

Take `CCOC(=O)c1ccc(NC(=O)C(C)(CCl)SC)cc1` (centres undefined): the inhibition was inactive: 21.6%.

`O=C(OC1CN2CCC1CC2)c1cccc([N+](=O)[O-])c1` (centres undefined): the inhibition was inactive: -19.1%.
